Assay results from patent US20090304869A1, “Peptides Having an Ace Inhibiting Effect” (priority 2005, published 2009).

How the values were obtained:
[1] = Simulated in-vitro gastro-intestinal digestion of synthetic MAP and ITP (micro-dissolution); conditions: for conc a: trial a; for conc b: trial b; for stability under gastro-intestinal conditions: synthetic peptide
[2] = test system: ACE; test: Modified Matsui ACE inhibition assay; format: biochemical
Protocol: This ACE inhibition activity was assayed according to the method of Matsui et al. (Matsui, T. et al. (1992) Biosci. Biotech. Biochem. 56: 517-518) with the modifications described below.
For each sample 75 μl 3 mM hippuryl histidine leucine (Hip-His-Leu, Sigma chemicals Co.; the chemical was dissolved in 250 mM Borate containing 200 mM NaCl, pH 8.3); 20 μl 0.1 U/ml ACE (obtained at Sigma) or H2O, and 25 μl sample or H2O were mixed (see Table 1). The mixtures were incubated at 37° C. and stopped after 30 min by adding 125 μl 0.5 M HCl. Subsequently, 225 μl bicine/NaOH solution (1 M NaOH:0.25 M bicine (4:6)) was added, followed by 25 μl 0.1 M TNBS (2,4,6-Trinitrobenzenesulfonic acid, Fluka, Switzerland; in 0.1 M Na2HPO4). After incubation for 20 min. at 37° C., 4, ml 4 mM Na2SO3 in 0.2 M NaH2PO4 was added and the absorbance at 416 nm was measured with UV/Vis spectrophotometer (Shimadzu UV-1601 with a CPS controller, Netherlands).
The amount of ACE inhibition (ACEI) activity was calculated as a percentage of inhibition compared with the conversion rate of ACE in the absence of an inhibitor:
wherein • C1=Absorbance without ACE inhibitory component (=max. ACE activity) [AU]. • C2=Absorbance without ACE inhibitory component and without ACE (background) [AU]. • S1=Absorbance in the presence of ACE and the ACE inhibitory component [AU]. • S2=Absorbance in the presence of the ACE inhibitory component, but without ACE [AU].

[3] = Simulated in-vitro gastro-intestinal digestion of protein hydrolysate (PH); format: in vitro ADME; conditions: for Concentration in PH: PH before digestion; for resistance against GIT digestion: PH in artificial gastro-intestinal tract; for Concentration in PH after digestion: after digestion in artificial human gastro intestinal tract, 125 min
Source text: Milk proteins and milk protein hydrolysates are commonly known as precursors of a large range of ACE inhibitory peptides. After consumption, the proteins and peptides are subjected to various digestive enzymatic processes in the human gastrointestinal tract, which results in the release of in-vivo ACE inhibitory peptides. In order to assess the break-down of the identified bioactive peptides and the formation of novel active peptides after human consumption, PH was processed by an artificial gastro-intestinal tract, which simulated conditions typically found in the human body. At certain times samples were taken from the GIT model system. These were also analysed using the on-line HPLC-Bioassay-MS or HRS-MS system.
Digestion of protein hydrolysate (hereafter PH), a hydrolyzed casein protein isolate obtained from DSM (Delft, The Netherlands). The protein hydrolysate (PH) was prepared by incubation of 10 wt % potassium caseinate with overproduced and essentially pure endoprotease from Aspergillus niger as described in WO 02/45524.
The digestion procedure was performed using a dissolution model (Vankel) with a 100 ml flask. The temperature of the water bath was set to 37.5° C. and the paddle speed was chosen such that the sample was kept in suspension (100 rpm).
About 3.4 grams of PH (protein level of 59%) was dissolved/suspended in 100 ml Milli-Q water. During gastric simulation 5 M HCl was used to decrease the pH, at the end of gastric simulation and during the duodenal phase 5 M NaOH was used to raise the pH.
The protein hydrolysate suspension was preheated to 37.5° C. At t=0 min 0.31 g of pepsin (Fluka order no. 77161) was suspended separately in 5 ml of the sample and was directly added.
The pH was adjusted slowly by hand using a separate pH meter according to the following scheme;
At t=90 min 0.139 g of 8 times USP pancreatin (Sigma order no. P7545) was suspended separately in 5 ml of the sample and was directly added;
The experiment was stopped at t=125 min and the pH was checked (was still pH 7).
The samples were transferred into a beaker and were heated in a microwave till boiling. Subsequently, the samples were transferred into glass tubes and incubated at 95° C. for 60 min. This is necessary to inactivate all protease activity. After cooling the samples were put in falcon tubes and centrifuged for 10 min at 3000×g. The supernatant was freeze dried. The total N concentration was determined and converted to protein level using the Kjeldahl factor of casein (6.38). The protein level of the PH digest was 48.4%.

[4] = 1 microgram/ml, 30 min (gastric)
[5] = 1 microgram/ml, 60 min (gastric)
[6] = 1 microgram/ml, 65 min (intestinal)
[7] = 1 microgram/ml, 75 min (intestinal)
[8] = 1 microgram/ml, 90 min (intestinal)
[9] = 1 microgram/ml, 120 min (intestinal)
[10] = 10 microgram/ml, 30 min (gastric)
[11] = 10 microgram/ml, 60 min (gastric)
[12] = 10 microgram/ml, 65 min (intestinal)
[13] = 10 microgram/ml, 75 min (intestinal)
[14] = 10 microgram/ml, 90 min (intestinal)
[15] = 10 microgram/ml, 120 min (intestinal)

In the case of `CC[C@H](C)[C@H](N)C(=O)N[C@H](C(=O)N1CCC[C@H]1C(=O)O)[C@@H](C)O` [ITP, Ile-Thr-Pro], the “% average” value ([1]; 1 microgram/ml, 0 min) is reported as 100%, the “% remaining trial 1” value ([1]; 1 microgram/ml, 0 min) is reported as 100% and the “% remaining trial 2” value ([1]; 1 microgram/ml, 0 min) is reported as 100%. For the same compound, the conc a ([1]; 1 microgram/ml, 0 min) was 1325.201 ng/mL, the conc b ([1]; 1 microgram/ml, 0 min) was 901.297 ng/mL and the “% remaining trial 1” value [1, 4] was 93%. For the same compound, the conc a [1, 4] was 1236.423 ng/mL, the conc b [1, 4] was 952.165 ng/mL and the “% remaining trial 1” value [1, 5] was 72%. For the same compound, the “% remaining trial 2” value [1, 5] was 99%, the conc a [1, 5] was 950.665 ng/mL and the conc b [1, 5] was 893.015 ng/mL. The “% remaining trial 1” value [1, 6] was 55%, the “% remaining trial 2” value [1, 6] was 75% and the conc a [1, 6] was 722.452 ng/mL. For the same compound, the conc b [1, 6] was 677.991 ng/mL, the “% remaining trial 1” value [1, 7] was 43% and the “% remaining trial 2” value [1, 7] was 77%. The conc b [1, 7] was 698.078 ng/mL, the “% remaining trial 1” value [1, 8] was 46% and the “% remaining trial 2” value [1, 8] was 78%. For the same compound, the conc a [1, 8] was 603.143 ng/mL, the conc b [1, 8] was 704.863 ng/mL and the “% remaining trial 1” value [1, 9] was 53%. The “% remaining trial 2” value [1, 9] was 75%, the conc a [1, 9] was 701.749 ng/mL and the conc b [1, 9] was 678.751 ng/mL. The “% average” value ([1]; 10 microgram/ml, 0 min) was 100%, the “% remaining trial 1” value ([1]; 10 microgram/ml, 0 min) was 100% and the “% remaining trial 2” value ([1]; 10 microgram/ml, 0 min) was 100%. For the same compound, the conc a ([1]; 10 microgram/ml, 0 min) was 11230.3 ng/mL, the conc b ([1]; 10 microgram/ml, 0 min) was 9388.467 ng/mL and the “% remaining trial 1” value [1, 10] was 78%. The “% remaining trial 2” value [1, 10] was 84%, the conc a [1, 10] was 8725.687 ng/mL and the conc b [1, 10] was 7884.828 ng/mL. For the same compound, the “% remaining trial 1” value [1, 11] was 76%, the conc a [1, 11] was 8542.271 ng/mL and the conc b [1, 11] was 9951.495 ng/mL. For the same compound, the “% remaining trial 1” value [1, 12] was 60%, the “% remaining trial 2” value [1, 12] was 91% and the conc a [1, 12] was 6739.74 ng/mL. The conc b [1, 12] was 8504.414 ng/mL, the “% remaining trial 1” value [1, 13] was 62% and the “% remaining trial 2” value [1, 13] was 64%. The conc a [1, 13] was 7016.45 ng/mL, the conc b [1, 13] was 6052.258 ng/mL and the “% remaining trial 1” value [1, 14] was 64%. For the same compound, the “% remaining trial 2” value [1, 14] was 60%, the conc a [1, 14] was 7212.26 ng/mL and the conc b [1, 14] was 5660.004 ng/mL. The “% remaining trial 1” value [1, 15] was 46%, the conc a [1, 15] was 5168.85 ng/mL and the “stability under gastro-intestinal conditions” value [1] was “excellent stability”. The IC50 [2] was 10 µM, the “stability in the human intestinal tract” value [3] was “stable” and the “Concentration in PH” value [3] was 903.74 μg g^−1 powder. The “resistance against GIT digestion” value [3] was “high resistance” and the “Concentration in PH after digestion” value [3] was 889.13 μg g^−1 powder.
For `CSCC[C@H](N)C(=O)N[C@@H](C)C(=O)N1CCC[C@H]1C(=O)O` [MAP, Met-Ala-Pro], the “% average” value ([1]; 1 microgram/ml, 0 min) was 100%, the “% remaining trial 1” value ([1]; 1 microgram/ml, 0 min) was 100% and the “% remaining trial 2” value ([1]; 1 microgram/ml, 0 min) was 100%. For the same compound, the conc b ([1]; 1 microgram/ml, 0 min) was 2962.5 ng/mL, the “% remaining trial 2” value [1, 4] was 93% and the conc b [1, 4] was 2760 ng/mL. The “% remaining trial 1” value [1, 5] was 64%, the conc a [1, 5] was 1902.6 ng/mL and the “% remaining trial 1” value [1, 6] was 47%. For the same compound, the “% remaining trial 2” value [1, 6] was 56%, the conc a [1, 6] was 1384.6 ng/mL and the conc b [1, 6] was 1654.1 ng/mL. For the same compound, the “% remaining trial 1” value [1, 7] was 43%, the “% remaining trial 2” value [1, 7] was 54% and the conc b [1, 7] was 1608.3 ng/mL. The “% remaining trial 1” value [1, 8] was 25%, the “% remaining trial 2” value [1, 8] was 31% and the conc a [1, 8] was 730.5 ng/mL. For the same compound, the conc b [1, 8] was 911.6 ng/mL, the “% remaining trial 1” value [1, 9] was 13% and the “% remaining trial 2” value [1, 9] was 17%. For the same compound, the conc a [1, 9] was 377.2 ng/mL, the conc b [1, 9] was 503.3 ng/mL and the “% average” value ([1]; 10 microgram/ml, 0 min) was 100%. The “% remaining trial 1” value ([1]; 10 microgram/ml, 0 min) was 100%, the “% remaining trial 2” value ([1]; 10 microgram/ml, 0 min) was 100% and the conc b ([1]; 10 microgram/ml, 0 min) was 82499.2 ng/mL. For the same compound, the “% remaining trial 1” value [1, 10] was 61%, the “% remaining trial 2” value [1, 10] was 93% and the conc a [1, 10] was 50635.6 ng/mL. The conc b [1, 10] was 76600.6 ng/mL, the “% remaining trial 1” value [1, 12] was 35% and the “% remaining trial 2” value [1, 12] was 40%. The conc a [1, 12] was 28492.5 ng/mL, the conc b [1, 12] was 33339.1 ng/mL and the “% remaining trial 1” value [1, 13] was 27%. For the same compound, the “% remaining trial 2” value [1, 13] was 27%, the conc a [1, 13] was 21936.4 ng/mL and the conc b [1, 13] was 21991.9 ng/mL. The “% remaining trial 1” value [1, 14] was 9%, the “% remaining trial 2” value [1, 14] was 13% and the conc a [1, 14] was 7588.3 ng/mL. The conc b [1, 14] was 10490.8 ng/mL, the “% remaining trial 1” value [1, 15] was 3% and the “% remaining trial 2” value [1, 15] was 3%. For the same compound, the conc a [1, 15] was 2810.6 ng/mL, the conc b [1, 15] was 2661.8 ng/mL and the remaining at 2 h, 1 microgram/ml ([1]; pH 6.8) was 15%. The “stability under gastro-intestinal conditions” value [1] was “reasonably good stability”, the IC50 [2] was 0.4 µM and the “stability in the human intestinal tract” value [3] was “stable”. For the same compound, the “Concentration in PH” value [3] was 2851.4 μg g^−1 powder, the “resistance against GIT digestion” value [3] was “high resistance” and the “Concentration in PH after digestion” value [3] was 3095.8 μg g^−1 powder.
